According to article PMC11765717, “In Vitro Insights into Bacteriocin-Mediated Modulation of Chicken Cecal Microbiota” (International Journal of Molecular Sciences, 2025):

Tests used:
chicken cecal microbiota = test: Batch fermentation of chicken cecal microbiota, 16S rRNA gene sequencing; assay type: cell-based, broiler chickens
[1] = tested on: Salmonella enterica subsp. enterica serotype Newport ATCC 6962
[2] = tested on: Salmonella enterica subsp. enterica serotype Newport ATCC 6962; test: Residual activity in cecal fermentation medium, agar well diffusion; details: over the 24 h of fermentation; agar diffusion tests

Compound: O=C(O)c1cn(C2CC2)c2cc(N3CCNCC3)c(F)cc2c1=O [Ciprofloxacin]
- Relative abundance of Escherichia, in words (chicken cecal microbiota): dropped
- Relative abundance of Gammaproteobacteria (chicken cecal microbiota; at both concentrations): 0.03
- Residual Activity 6 h [1]: +++ +++
- Residual Activity 12 h [1]: +++ +++
- Stability of inhibitory activity in batch fermentation, in words [2]: remained highly active
